Assay results published in ChEMBL document CHEMBL1156785, “Discovery of 4-[(2S)-2-{[4-(4-chlorophenoxy)phenoxy]methyl}-1-pyrrolidinyl]butanoic acid (DG-051) as a novel leukotriene A4 hydrolase inhibitor of leukotriene B4 biosynthesis” (J Med Chem, 2010).

How the values were obtained:
[1] = molecular target: T1, Leukotriene A-4 hydrolase (Homo sapiens, UniProt P09960)
T1 sequence (P09960 whole entry): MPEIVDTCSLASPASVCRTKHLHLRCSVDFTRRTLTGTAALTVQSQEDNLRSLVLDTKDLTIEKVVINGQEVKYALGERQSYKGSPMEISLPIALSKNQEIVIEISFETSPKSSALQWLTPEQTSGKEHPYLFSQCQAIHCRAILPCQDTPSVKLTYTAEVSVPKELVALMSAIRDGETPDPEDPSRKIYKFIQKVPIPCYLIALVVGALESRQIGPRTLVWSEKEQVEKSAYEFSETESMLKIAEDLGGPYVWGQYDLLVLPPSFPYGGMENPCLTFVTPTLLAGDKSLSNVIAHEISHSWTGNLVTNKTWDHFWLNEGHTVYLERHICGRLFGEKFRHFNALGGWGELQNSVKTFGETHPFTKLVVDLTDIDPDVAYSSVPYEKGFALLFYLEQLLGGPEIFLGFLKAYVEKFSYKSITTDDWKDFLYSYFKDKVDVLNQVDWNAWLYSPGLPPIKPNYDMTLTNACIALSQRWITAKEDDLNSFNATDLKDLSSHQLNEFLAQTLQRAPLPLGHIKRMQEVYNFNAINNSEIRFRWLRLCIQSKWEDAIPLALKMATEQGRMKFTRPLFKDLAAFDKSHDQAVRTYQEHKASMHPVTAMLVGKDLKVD

[2] = molecular target: T1, Leukotriene A-4 hydrolase; remark: listed apart in the source

| Compound | IC50 [1] [nM] | IC50 [2] [nM] |
| --- | --- | --- |
| c1ccc(Cc2ccc(OC[C@H]3CCCN3)cc2)cc1 | 449 |  |
| c1ccc(Cc2ccc(OC[C@@H]3CCCN3)cc2)cc1 |  | 244 |
| O=C(O)CCCN1CCC[C@@H]1COc1ccc(Oc2ccc(Cl)cc2)cc1 | 33 |  |
